The text below walks through data of BindingDB's records for doi:10.1146/annurev.pharmtox.37.1.205 (Emory University, 1997).

The chains behind the UniProt entries cited, without tags or fusion partners. Where a name states a change or a piece, a line headed by the entry shows the natural chain unless it says otherwise.
UniProt Q14833: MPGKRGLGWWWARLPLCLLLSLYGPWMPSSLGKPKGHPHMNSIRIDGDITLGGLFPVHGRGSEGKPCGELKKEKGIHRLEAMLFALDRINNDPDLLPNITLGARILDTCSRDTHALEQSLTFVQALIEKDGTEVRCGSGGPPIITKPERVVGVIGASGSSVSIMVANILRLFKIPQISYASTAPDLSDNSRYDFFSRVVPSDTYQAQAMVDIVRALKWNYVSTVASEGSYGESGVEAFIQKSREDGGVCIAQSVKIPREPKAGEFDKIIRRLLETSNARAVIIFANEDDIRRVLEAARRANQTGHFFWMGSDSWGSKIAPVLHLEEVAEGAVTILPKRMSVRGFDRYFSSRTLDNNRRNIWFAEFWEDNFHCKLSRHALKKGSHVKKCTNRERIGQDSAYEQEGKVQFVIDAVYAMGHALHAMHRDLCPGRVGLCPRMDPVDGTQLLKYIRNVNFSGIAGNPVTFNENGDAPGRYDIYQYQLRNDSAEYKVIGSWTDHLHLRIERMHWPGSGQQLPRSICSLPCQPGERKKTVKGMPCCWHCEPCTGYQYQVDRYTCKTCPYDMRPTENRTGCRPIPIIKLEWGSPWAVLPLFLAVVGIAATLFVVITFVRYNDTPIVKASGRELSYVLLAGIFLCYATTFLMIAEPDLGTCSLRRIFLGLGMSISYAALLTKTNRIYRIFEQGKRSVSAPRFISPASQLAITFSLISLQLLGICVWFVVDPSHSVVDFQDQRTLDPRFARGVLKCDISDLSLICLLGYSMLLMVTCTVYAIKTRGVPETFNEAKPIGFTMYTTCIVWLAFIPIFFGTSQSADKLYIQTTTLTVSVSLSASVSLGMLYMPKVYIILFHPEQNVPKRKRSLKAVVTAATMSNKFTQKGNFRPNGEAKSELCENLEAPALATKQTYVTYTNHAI

Structures are written as SMILES.

For this assay, the target named is Metabotropic glutamate receptor 4 (Homo sapiens, UniProt Q14833).

Molecule `N[C@@]1(C(=O)O)CC[C@H](C(=O)O)C1` [1S, 3R-ACPD] yielded an inhibition constant Ki of more than 10 µM.

A word on the Ki: it is the equilibrium dissociation constant of an inhibitor or competing ligand from its target. High values mean weaker binding, low ones tighter binding.
